How the values were obtained:
[1] = system: lung adenylate cyclase; conditions: Table II; from Table I; accurate to ±20%
[2] = system: beta2 adrenergic receptor present in mammalian lung; conditions: Table II; IHYP binding; from Table I; accurate to ±20%

Structure (SMILES) | β2/β1 potency ratio (Ki heart/Ki lung) [1] | β2/β1 potency ratio (Kd heart/Kd lung) [2]
Cc1ccc(C(O)C(C)NC(C)C)cc1 (stereo not shown) [H35/25, (1(4'-methyl phenyl)-2-isopropylaminopropanol)] | 1.58 | 2.3
COc1ccc(OC)c(C(O)C(C)NC(C)(C)C)c1 (stereo not shown) [Butoxamine] | 4.88 | 1.98

From patent publication US4652586A, “Selective beta-2 adrenergic antagonists for the treatment of glaucoma” (priority 1980, dated 1987)
